Assay results reported in ChEMBL document CHEMBL1134012, “Synthesis of thiophene-2-carboxamidines containing 2-aminothiazoles and their biological evaluation as urokinase inhibitors” (Bioorg Med Chem Lett, 2001).

Molecular target: Urokinase-type plasminogen activator (Homo sapiens, UniProt P00749)
Assay: In vitro inhibitory activity against Urokinase-type plasminogen activator (microPa)

COc1ccc(N2CCN(c3nc(-c4cc(C(=N)N)sc4SC)cs3)CC2)cc1
Ki: 480 nM
